For one compound, Ki results are on record in BindingDB's records for PubMed 1646322 (Mayo Clinic, 1991).

Chains of the proteins cited; added tags and fusions are not shown. Lines headed by an entry give the natural chain unless they say otherwise; changes in a name come on top.
UniProt P08482: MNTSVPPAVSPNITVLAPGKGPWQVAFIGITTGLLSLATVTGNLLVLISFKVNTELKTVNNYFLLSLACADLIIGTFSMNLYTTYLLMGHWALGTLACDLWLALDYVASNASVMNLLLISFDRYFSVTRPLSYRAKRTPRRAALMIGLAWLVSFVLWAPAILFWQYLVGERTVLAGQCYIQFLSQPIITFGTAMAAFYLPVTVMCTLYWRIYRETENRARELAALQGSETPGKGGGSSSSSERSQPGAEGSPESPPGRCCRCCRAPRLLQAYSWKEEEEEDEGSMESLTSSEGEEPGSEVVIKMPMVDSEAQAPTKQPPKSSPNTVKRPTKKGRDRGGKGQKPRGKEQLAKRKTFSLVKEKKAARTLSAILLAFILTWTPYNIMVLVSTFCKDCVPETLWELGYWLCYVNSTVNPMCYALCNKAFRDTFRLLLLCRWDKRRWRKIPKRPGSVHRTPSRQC

The structures appear in SMILES notation.

The term Ki denotes a measure of affinity in units of concentration, obtained from inhibition or displacement.

In the assay the target is Muscarinic acetylcholine receptor M1 (Rattus norvegicus, UniProt P08482).

The compound `COc1ccccc1CNCCCCCCNCCCCCCCCNCCCCCCNCc1ccccc1OC` [METHOCTRAMINE] gave an inhibition constant Ki of 0.6 µM. This lies in the sub-micromolar range.
